Measurements: ChEMBL document CHEMBL2321834 (J Med Chem, 2013)

Species on record: Homo sapiens
Test: Selectivity ratio of IC50 for 17beta-HSD1 in human placental microsomal fraction to IC50 for 17beta-HSD2 in human placental microsomal fraction
Assay type: microsomes
Details: Microsome

**Q.** With COc1cccc(N(C)C(=O)c2ccc(-c3ccc(OC)c(F)c3)s2)c1 as the molecule, how does the Ratio IC50 read?
**A.** > 165
